The assay addresses T1, butyrylcholinesterase (Equus caballus, UniProt P81908).
T1 construct: butyrylcholinesterase (from horse serum); purchased Sigma; host or cells: horse serum (natural source)
The experiment in a line: biochemical. The arrangement: species or system horse. The protocol:
Cholinesterase activity measurements were performed essentially according to the method of Ellman (Biochemical Pharmacology 7:88-90, 1961). The composition of the assay mixture was 0.1 M sodium phosphate, pH 7.5, 0.033 M DTNB, 0.001 M MgCl2, and 100 μg/mL of BSA containing appropriate amounts of substrate and inhibitor. Each assay was initiated by the addition of substrate and the activity quantified by measuring the formation of the thionitrobenzoate anion at 412 nm at 37° C. Methanol used to solubilize the dialkyl phenyl phosphates [1% (v/v) final concentration] had no inhibitory effect on either enzyme.
. The results were obtained by pre-incubating the enzyme with the compound (final concentration 10^−7M) for various periods of time and measuring the remaining enzyme activity. The results are shown as the change in absorbance at 412 nm/minute. In order to simplify the results from all the compounds, the enzyme activities were normalized to 2-chlorophenyl-di-n-butyl phosphate which was set as 1.0. Since two different preparations of enzyme were used, the normalization procedure would adjust for any differences in the amount of enzyme. […]. […]
Table 4: Rates of inactivation of butyrylcholinesterase by exemplary compounds: Change in Absorbance at 412 nm/Minute. […]

Amino acid sequences for entries named in this document (tags omitted).
UniProt P81908, whole entry: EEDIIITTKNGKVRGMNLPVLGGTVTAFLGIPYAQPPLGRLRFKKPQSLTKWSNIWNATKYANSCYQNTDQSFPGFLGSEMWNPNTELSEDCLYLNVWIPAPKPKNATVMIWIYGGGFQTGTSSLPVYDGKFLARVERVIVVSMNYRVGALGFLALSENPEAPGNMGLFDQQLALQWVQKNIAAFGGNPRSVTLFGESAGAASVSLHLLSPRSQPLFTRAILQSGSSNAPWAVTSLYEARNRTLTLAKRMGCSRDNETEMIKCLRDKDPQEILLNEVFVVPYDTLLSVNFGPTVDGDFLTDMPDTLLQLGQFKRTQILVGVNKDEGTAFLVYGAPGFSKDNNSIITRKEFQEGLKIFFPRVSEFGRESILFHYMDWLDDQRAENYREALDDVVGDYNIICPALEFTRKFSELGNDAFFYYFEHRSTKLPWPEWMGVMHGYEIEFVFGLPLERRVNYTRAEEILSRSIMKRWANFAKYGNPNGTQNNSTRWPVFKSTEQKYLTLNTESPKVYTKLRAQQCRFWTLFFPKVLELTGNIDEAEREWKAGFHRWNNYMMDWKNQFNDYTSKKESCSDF

`CCCCOP(=O)(OCCCC)Oc1ccccc1C`: the affinity, expressed as Ki, was 2.1 µM.

These data come from patent publication US9757399B2, “Butyrylcholinesterase inhibitors” (priority 2006, dated 2017).
